Tests used:
Adenosine receptor A1 = Adenosine receptor A1 (Rattus norvegicus, UniProt P25099); assay: Binding affinity for adenosine A1 receptor as inhibition of 3[H]-R-PIA binding in rat brain; type: tissue-based
Adenosine receptor A2a = Adenosine receptor A2a (Rattus norvegicus, UniProt P30543); assay: Binding affinity for adenosine A2a receptor as inhibition of 3[H]-CGS 21680 binding in rat striatum; type: tissue-based

Sequences of proteins named here, by UniProt entry; tags and fusion partners are left off.
UniProt P25099, whole entry: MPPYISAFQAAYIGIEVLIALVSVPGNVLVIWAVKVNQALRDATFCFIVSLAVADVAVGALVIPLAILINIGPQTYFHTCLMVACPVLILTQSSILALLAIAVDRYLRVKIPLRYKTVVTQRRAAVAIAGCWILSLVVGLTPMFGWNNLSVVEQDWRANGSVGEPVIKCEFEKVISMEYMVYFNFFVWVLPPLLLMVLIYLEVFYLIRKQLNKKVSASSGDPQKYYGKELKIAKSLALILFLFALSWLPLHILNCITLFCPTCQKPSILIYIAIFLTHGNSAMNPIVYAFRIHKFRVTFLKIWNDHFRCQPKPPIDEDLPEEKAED
UniProt P30543, whole entry: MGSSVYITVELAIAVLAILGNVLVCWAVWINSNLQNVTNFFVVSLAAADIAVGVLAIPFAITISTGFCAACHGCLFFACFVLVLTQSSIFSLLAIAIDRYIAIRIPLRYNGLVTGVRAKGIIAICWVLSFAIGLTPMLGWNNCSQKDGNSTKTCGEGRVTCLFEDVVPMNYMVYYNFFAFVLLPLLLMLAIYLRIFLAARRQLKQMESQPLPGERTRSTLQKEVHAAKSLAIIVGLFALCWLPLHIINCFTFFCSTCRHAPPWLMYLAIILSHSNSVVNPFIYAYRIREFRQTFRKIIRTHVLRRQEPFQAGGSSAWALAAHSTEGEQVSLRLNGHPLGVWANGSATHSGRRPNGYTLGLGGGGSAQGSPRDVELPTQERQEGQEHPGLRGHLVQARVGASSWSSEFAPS

Ki (Adenosine receptor A1): 54 nM
Ki (Adenosine receptor A2a): 56 nM
SMILES: CNC(=O)[C@H]1O[C@@H](n2cnc3c(NCc4cccc(I)c4)nc(Cl)nc32)[C@H](O)[C@@H]1O [NAMODENOSON]

— ChEMBL document CHEMBL1130877, “The synthesis of new adenosine A3 selective ligands containing bioisosteric isoxazoles” (Bioorg Med Chem Lett, 1998)
